High-throughput results as filed in PubChem.
GIV-Gai inh = inhibitors of GIV GBA-motif binding to rat Galpha-i3; P08753; Galpha-i3/FITC-GIV peptide fluorescence polarization, 90 min; hits give low values; scaled: aluminum fluoride 0%, vehicle 100%; percent of control (FP), % (test concentration not listed); 0.42% of 210,000 active; AID 1224905;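 active = replicate mean at 85% of control or lower, very high polarization wells dropped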;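 also: wells of about 15 µL received 100 nL stock; the first replicate is given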
HCMV NEC inh = disrupts HCMV UL50-UL53 complex binding; HTRF UL50-UL53 interaction, normalized percent inhibition; inhibition, % (test concentration not listed); 190,000 compounds, 0.15% hits; AID 1918969; in the data active means inhibition above about 27%, passing the limit was not always enough
GIV-Gai FP conf = GIV-Galpha-i3 inhibition, FP confirmation; shares compounds with GIV-Gai inh; FITC-GIV peptide binding to Galphai3, fluorescence polarization; hits give low values; fluorescence polarization, mP at 100 µM; 580 compounds, 38% hits; AID 1259350;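 active means inhibition score of 15 or more, meaning 100 minus mean polarization as percent of control over three replicates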;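 further: lower mP means peptide displaced from Galphai3 so more inhibition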
GIV-Gai AS conf = confirmation of inhibitors of GIV binding to human Galpha-i3; shares compounds with GIV-Gai inh; AlphaScreen Galphai3-GIV binding, purified proteins, 90 min; hits give low values; AlphaScreen counts at 100 µM; 580 compounds, 39% hits; AID 1259351;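 active means inhibition score at or above a set limit, where the score is 100 minus the three-replicate mean percent of control signal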
* hit, by the source's call; x = no result given. Most compounds without a hit are left out; they make up all but 0.46% or so of the library.

SMILES	GIV-Gai inh	HCMV NEC inh	others
CC[C@@]1(O)C(=O)OCc2c1cc1n(c2=O)Cc2cc3c(CN(C)C)c(O)ccc3nc2-1	-6.9*	-69
CCCCc1cc(=O)oc2c(CN(C)C)c(O)ccc12	106	-30
COc1cc(OC)c(CNc2ccc3cn[nH]c3c2)cc1Br	111	-8
Brc1ccc(CNc2ccc3cn[nH]c3c2)s1	116	56*
Cc1cnc(NC(=O)c2c(O)c3cccc4c3n(c2=O)CC4)s1	109	x
CC1CN(C(=O)c2ccccc2)OC(c2cccs2)O1 (stereo not given)	103	-49
Cc1ccc(/C=C2\CC/C(=C\c3ccc(C)o3)C2=O)o1	-75*	x
Cc1ccc(/C=C2/CC(C)C/C(=C\c3ccc(C)o3)C2=O)o1 (stereo not given)	206	-2
O=C(CN(C(=O)C1CSC(=O)C1)c1ccccc1F)NC1CCCC1 (stereo not given)	104	4
CCOC(=O)C1CCCN(C(=O)Cn2c(=O)c3ccccc3n3c(=S)sc(-c4cccc(F)c4)c23)C1 (stereo not given)	77*	-36
CCOC(=O)C1CCCN(C(=O)Cn2c(=O)c3ccccc3n3c(=S)sc(-c4ccc(Cl)cc4)c23)C1 (stereo not given)	135	12
Cc1cc(C(=O)CSc2ncn[nH]2)c(C)n1CC(F)(F)F	x	-28
C=CCOc1cc(C2CC(=O)Nc3c2c(C)nn3-c2nncc(-c3ccc(OC)cc3)n2)ccc1OC (stereo not given)	100	x
COc1cccc(NC(=O)c2cn(-c3cc(-c4noc(C)n4)ccc3C)nc2C)c1	98	x
CC(=O)Nc1sc2c(c1-c1nc3ccccc3s1)CCN(C(C)C)C2	-3.2*	x
CCN1CCc2c(sc(NC(=O)c3ccc(Cl)cc3)c2-c2nc3ccccc3s2)C1	-3.2*	x
COc1ccc(C(=O)Nc2sc3c(c2-c2nc4ccccc4s2)CCN(C(C)C)C3)cc1OC	-3.2*	x
CC(=O)N1CCc2c(sc(NC(=O)C(C)C)c2-c2nc3ccccc3s2)C1	x	-17
COC(=O)c1ccc(C(=O)Nc2sc3c(c2-c2nc4ccccc4s2)CCN(C(C)C)C3)cc1	262	x
CCN1CCc2c(sc(NC(=O)CSc3ccccc3)c2-c2nc3ccccc3s2)C1	169	x
CC(C)N1CCc2c(sc(NC(=O)C(C)(C)C)c2-c2nc3ccccc3s2)C1	-26*	x
CN1CCc2c(sc(NC(=O)c3nc4ccccc4s3)c2-c2nc3ccccc3s2)C1	96	x
NC(=NCCc1ccccc1)Nc1nc2ccccc2[nH]1	107	-3
CC(C)Cn1c2c(c(O)c(C(=O)Nc3nc(C45CC6CC(CC(C6)C4)C5)cs3)c1=O)CCCC2	118	x
O=c1c2[nH]c3ccccc3c2ncn1CCCN1CCCC1	106	x
COc1cccc(NC(=O)CCn2cnc3c(-c4ccc(C)cc4)noc3c2=O)c1	100	x
O=C1c2ccccc2-c2nc3nnnn3nc21	x	103*
N#Cc1nc2c(nc1C#N)-c1ccccc1C2=O	90	-5
CCOc1cc(/C=C2/C(=O)N(c3ccccc3)N=C2C)ccc1OS(=O)(=O)c1ccccc1	104	60*
COc1cc(/C=C2/C(=O)N(c3ccccc3)N=C2C)ccc1OS(=O)(=O)c1ccccc1[N+](=O)[O-]	106	-34
O=c1c2ccccc2nc2c(-c3nc(-c4ccc5c(c4)OCO5)no3)cccn12	58*	-18
O=c1c2ccccc2nc2c(-c3nc(-c4ccccc4)no3)cccn12	118	-27
CCOC(=O)c1cc(-c2cc3ccccc3o2)nn1CCC#N	x	10
CC1CCCCN1Cc1c(O)ccc2cc(-c3nc4ccccc4s3)c(=O)oc12 (stereo not given)	-32*	-61
CCC1CCCCN1Cc1c(O)ccc2cc(-c3nc(C)cs3)c(=O)oc12 (stereo not given)	x	-56
COc1cccc(C2NC(CC(C)C)(C(=O)O)C3C(=O)N(c4ccc(F)cc4)C(=O)C23)c1 (stereo not given)	98	-31
COc1ccccc1-c1noc(-c2nn(-c3ccc(Cl)cc3)ccc2=O)n1	100	x
CC1C/C(=C/c2cccn2C)C(=O)/C(=C/c2cccn2C)C1 (stereo not given)	-75*	x
Cn1cccc1/C=C1\CC(c2ccccc2)C/C(=C\c2cccn2C)C1=O (stereo not given)	203	-22
Cn1cccc1/C=C1\CN(Cc2ccccc2)C/C(=C\c2cccn2C)C1=O	-88*	-58

Overlap with the part before: 2 compounds; new compounds follow.
SMILES	GIV-Gai inh	HCMV NEC inh	others
Cn1cccc1/C=C1\CC(c2ccccc2)C/C(=C\c2cccn2C)C1=O (stereo not given)	203	-22
Cn1cccc1/C=C1\CN(Cc2ccccc2)C/C(=C\c2cccn2C)C1=O	-88*	-58
O=C1/C(=C/c2cccs2)CN(Cc2ccccc2)C/C1=C\c1cccs1	107	-20
N#CCc1nc(-c2ccc(C(F)(F)F)cc2)cs1	143	-8
CC1CCC(NS(=O)(=O)c2ccc(-c3ccno3)s2)CC1 (stereo not given)	95	x
CC(C)NS(=O)(=O)c1ccc(-c2ccno2)s1	31*	x
Cc1cccc(-c2cc3nc4c(c(N5CCCC5)n3n2)CCCC4)c1	107	-10
Cc1cccc(NC(=O)Nc2ccc3c(c2)oc(=O)n3C)c1	107	-17
C=CCN1C(=O)/C(=C/c2c(NCc3ccco3)nc3ccccn3c2=O)SC1=S	-83*	-14
CCN1C(=O)/C(=C/c2c(NC(C)C)nc3ccccn3c2=O)SC1=S	293	-13
C=CCN1C(=O)/C(=C/c2c(NCC)nc3ccccn3c2=O)SC1=S	-33*	x
COc1ccc(CCN2C(=O)/C(=C/c3c(NCc4ccccc4)nc4ccccn4c3=O)SC2=S)cc1OC	139	x
O=C1/C(=C/c2c(NCc3ccco3)nc3ccccn3c2=O)SC(=S)N1C1CCCCC1	109	x
CCNc1nc2ccccn2c(=O)c1/C=C1\SC(=S)N(Cc2ccco2)C1=O	-75*	-11
CCOC(=O)C1=C(C)N=c2s/c(=C/c3cc(OC)c(OC)c(OC)c3)c(=O)n2C1c1cc(OC)ccc1OC (stereo not given)	103	-15
Cc1ccccc1NC(=O)CCC1COc2ccccc2O1 (stereo not given)	103	-3
CCN(C(=O)Nc1ccccc1C(=O)OC)c1nc(-c2ccc(Br)cc2)cs1	106	-5
O=C(Nc1ccc2c(c1)OCO2)C1CCCN(c2ncc(-c3ccc(F)cc3)cn2)C1 (stereo not given)	100	x
COc1cc(OC)c(NC(=O)C2CCCN2c2nn3c(=O)cc(C)nc3s2)cc1Cl (stereo not given)	103	-12
O=C(c1cccc(S(=O)(=O)NC2CC2)c1)N1CCN(c2ncccn2)CC1	x	-24
CC(C)Cc1ccc(S(=O)(=O)Nc2cc(C(=O)O)cnc2N(C)C)cc1	101	-20
CC(C)c1ccc(S(=O)(=O)Nc2cc(C(=O)O)cnc2N(C)C)cc1	75*	-24

Random excerpt: two compounds from above
SMILES	GIV-Gai inh	HCMV NEC inh	others
CC(C)Cc1ccc(S(=O)(=O)Nc2cc(C(=O)O)cnc2N(C)C)cc1	101	-20
CC(C)NS(=O)(=O)c1ccc(-c2ccno2)s1	31*	x

Carrying on:
SMILES	GIV-Gai inh	HCMV NEC inh	others
CCC(Sc1nnc(-c2cc(C)ccc2NC(C)=O)c(=O)[nH]1)C(=O)Nc1ccc(C)c(Cl)c1 (stereo not given)	98	-28
O=C1c2ccccc2-c2nc3nonc3nc21	49*	36	GIV-Gai FP conf=44*;GIV-Gai AS conf=17911*
O=C1c2ccccc2-c2n[nH]c(=S)nc21	97	-170
c1nc(NCc2ccc3c(c2)OCO3)c2ccsc2n1	x	-17

Gathered by group, those above containing a COOH group (3)
SMILES	GIV-Gai inh	HCMV NEC inh	others
COc1cccc(C2NC(CC(C)C)(C(=O)O)C3C(=O)N(c4ccc(F)cc4)C(=O)C23)c1 (stereo not given)	98	-31
CC(C)Cc1ccc(S(=O)(=O)Nc2cc(C(=O)O)cnc2N(C)C)cc1	101	-20
CC(C)c1ccc(S(=O)(=O)Nc2cc(C(=O)O)cnc2N(C)C)cc1	75*	-24
